For experiment [1], the target named is T1, Heat shock protein HSP90 (Homo sapiens, UniProt P07900+P08238). The experiment is described as follows: Inhibition of N-terminal GST-tagged HSP90 ATPase activity (unknown origin) expressed in Escherichia coli at 100 uM after 1 hr in presence of ATP by spectrophotometric assay relative to control. In short, it runs like this:
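ADP Hunter Plus ADP-detection kit. Compound at 100 μM final in 15 mM HEPES, 20 mM NaCl, 1 mM EDTA, 10 mM MgCl2, 0.02% Tween20, pH 7.4. Mixed in equal volumes with Hsp90 (5 μM) and ATP (100 μM), 1 h at 37 °C. Detection reagents A and B added, 30 min at room temperature; ex 540/em 620 nm. Protein-free background; no-ligand wells set as 100% activity.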

Sequences of proteins named here, by UniProt entry; tags and fusion partners are left off.
UniProt P08238, whole entry, looked up: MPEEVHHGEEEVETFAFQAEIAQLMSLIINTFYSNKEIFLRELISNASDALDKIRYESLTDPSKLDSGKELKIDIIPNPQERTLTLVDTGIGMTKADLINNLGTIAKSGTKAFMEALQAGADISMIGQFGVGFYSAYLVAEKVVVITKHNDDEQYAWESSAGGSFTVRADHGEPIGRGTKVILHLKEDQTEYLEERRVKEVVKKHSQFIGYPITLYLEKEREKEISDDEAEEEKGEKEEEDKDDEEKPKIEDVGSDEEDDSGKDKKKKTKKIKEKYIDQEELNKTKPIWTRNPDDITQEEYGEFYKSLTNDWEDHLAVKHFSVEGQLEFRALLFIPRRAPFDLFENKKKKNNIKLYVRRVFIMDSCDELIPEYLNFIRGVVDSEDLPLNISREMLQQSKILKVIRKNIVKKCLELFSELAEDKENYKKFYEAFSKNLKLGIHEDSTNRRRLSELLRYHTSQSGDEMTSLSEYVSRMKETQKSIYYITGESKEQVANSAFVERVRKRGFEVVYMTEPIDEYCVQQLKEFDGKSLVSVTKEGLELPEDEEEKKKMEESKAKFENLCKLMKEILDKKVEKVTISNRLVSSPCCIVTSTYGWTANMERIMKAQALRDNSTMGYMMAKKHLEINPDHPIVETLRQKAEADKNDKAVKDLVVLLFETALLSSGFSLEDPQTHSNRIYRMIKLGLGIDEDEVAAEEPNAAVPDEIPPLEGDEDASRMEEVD

Experiment [2] concerns the target T1, Heat shock protein HSP90. The experiment is described as follows: Inhibition of GA-FITC binding to N-terminal GST-tagged HSP90 (unknown origin) expressed in Escherichia coli at 100 uM after 30 mins fluorescence polarization assay relative to control. A digest of the protocol: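 FP competition at 100 μM compound. Mixture: 100 nM Hsp90 and 10 nM FITC-geldanamycin probe in 100 mM Tris pH 7.4, 20 mM KCl, 6 mM MgCl2, 5 mg/ml BSA. Incubated 30 min at room temperature in the dark; ex 485/em 535 nm. % inhibition = 1 − (Pobs − Pmin)/(Pmax − Pmin); Pmax is protein plus probe, Pmin is free probe.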
On the technique in general: Fluorescence polarisation rises when a labelled molecule tumbles more slowly, as on binding a larger partner.

We go through two molecules from ChEMBL document CHEMBL4138078, “Structure-based virtual screening and optimization of modulators targeting Hsp90-Cdc37 interaction” (Eur J Med Chem, 2017).

One may read the inhibition as the relative decrease from the control value, in per cent.

Active and inactive are the calls of the source. The calls are words filed in the database; no cut-off is given here.

Turning to `O[C@H](COc1ccc(OC[C@H](O)CN2CCN(c3cccc(Cl)c3)CC2)cc1)CN1CCN(c2cccc(Cl)c2)CC1`, in experiment [1], the inhibition was under 10%. Moreover, the inhibition entry in experiment [2] is “inactive”.

Consider `COc1ccc(CCNc2cc(N3CCN(CCO)CC3)ccc2[N+](=O)[O-])cc1OC`, for which, in experiment [1], the inhibition was under 10%. Besides, the inhibition entry in experiment [2] is “inactive”.
